## Measured affinities in a library of Ab-95 light chain variants

Target peptide (SARS-CoV-2 spike, HR2 region): PDVDLGDISGINAS

Parent scFv Ab-95: VH joined to VL by a (GGGGS)3 linker. Changes lie in the light chain CDRs alone.
VH: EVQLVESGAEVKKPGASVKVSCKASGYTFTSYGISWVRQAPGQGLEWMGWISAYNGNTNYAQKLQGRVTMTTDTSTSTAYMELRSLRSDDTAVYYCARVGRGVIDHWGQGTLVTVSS
VL: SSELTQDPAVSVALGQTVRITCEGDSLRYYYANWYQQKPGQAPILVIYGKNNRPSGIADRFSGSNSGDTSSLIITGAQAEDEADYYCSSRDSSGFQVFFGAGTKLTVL

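AAYL52 was designed without a model: most single CDR substitutions and a random sample of double and triple ones. AlphaSeq pools MATa yeast showing the antibodies with MATalpha yeast showing the peptide. The frequency of each diploid, read from paired DNA barcodes, reflects how well the two displayed proteins bind. The ratio of observed to expected reads was calibrated, replicate by replicate, on BCL2-family standards whose Kd was known from biolayer interferometry. Each pool was mated in three replicate cultures.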

Each variant is given by its three light chain CDRs, as the data file delimits them; those of the parent are EGDSLRYYYAN, GKNNRPS, SSRDSSGFQVF.
Every variant below is changed at G94 of the VL (sequential numbering).
The Kd shown is the geometric mean over detected replicates; a lower Kd is a better binder.
"no signal" marks a missing value. The strain was present, yet no cells mated with the target were sequenced in any replicate, which points to weak or no binding.
Order: sorted from the lowest average up, undetected variants last.
As a blank, each scFv also met three strains without target: over library AAYL52, 28% of these pairings were detected, typically at 8.2 µM and seldom below 800 nM.
In this assay the parent's reference entry averaged 200 nM; its copy inside this library read 180 nM.

| CDR-L1 | CDR-L2 | CDR-L3 | Kd | seen in |
|---|---|---|---|---|
| EGDSLRYGYAN | GKNNRPS | SSRPSSSFQVF | 37 nM | 3 of 3 |
| EGDSLRYYYAN | GKNNRPS | ISRDSSCFQVF | 77 nM | 3 of 3 |
| QGDSLRYDYAN | GKNNRPS | SSRDSSQFQVF | 100 nM | 3 of 3 |
| EGDLLRYYYAN | GKNNRPS | SSRDSSEFCVF | 240 nM | 3 of 3 |
| EGDSLRYYYAN | GKNNRPS | SKRDSSHFQFF | 330 nM | 3 of 3 |
| EGDSLRYYYAN | GKNNRPS | SSRFGSWFQVF | 430 nM | 3 of 3 |
| EGDYLRYYYAN | GKNNRPS | SSRPSSPFQVF | 440 nM | 3 of 3 |
| EGDSLRYYYAN | GKNNRPS | SNRDGSAFQVF | 650 nM | 1 of 3 |
| EGDSLRYYYAN | GKNNRPP | SARDSSYFQVF | 710 nM | 3 of 3 |
| EGDSLRYYYAN | GKNMRPS | SSRDSSHFQVF | 780 nM | 3 of 3 |
| EGDSMRYYYAN | GKNNRPN | SSRDSSDFQVF | 830 nM | 1 of 3 |
| ESDSLRYYYAN | GKNNRPS | SSRDSSIFQRF | 870 nM | 3 of 3 |
| HTDSLRYYYAN | GKNNRPS | SSRDSSAFQVF | 1.2 µM | 2 of 3 |
| EGDSLREYYAN | GKNNRPS | SSRDSGYFQVF | 1.4 µM | 1 of 3 |
| SGDSLRYYYAN | GKNNRPS | SQRDSSAFQVF | 1.6 µM | 2 of 3 |
| EGDSLHSYYAN | GKNNRPS | SSRDSSSFQVF | 1.6 µM | 1 of 3 |
| EGDSLRYYYAN | GKNCRPE | SSRDSSQFQVF | 1.8 µM | 3 of 3 |
| EGWSLRYYYAN | GKNNRPS | SSSDSSCFQVF | 2.2 µM | 1 of 3 |
| EGDSLHMYYAN | GKNNRPS | SSRDSSWFQVF | 2.4 µM | 2 of 3 |
| EGDSLRMYYAN | GKNNRVS | SSRDSSSFQVF | 2.7 µM | 2 of 3 |
| EGDSYRYYYAN | GKNNRPS | SSRDSSRFQVK | 3.0 µM | 1 of 3 |
| EGDSLRYYYAN | GKNNRPS | SSREVSMFQVF | 3.0 µM | 3 of 3 |
| SGDSLRYYYAN | GKNNRPS | SSRDSHSFQVF | 3.5 µM | 1 of 3 |
| EGDSLRYYYAN | GKNKRPS | QSRDSSLFQVF | 3.6 µM | 1 of 3 |
| EGDSLRYYYAN | GKNNRPS | SSRDSSQSQVF | 4.0 µM | 1 of 3 |
| EGDSVRYYYAN | GKNNRPQ | SSRDSSNFQVF | 4.1 µM | 3 of 3 |
| EGDSDRYYYAN | GKNNRPS | SSRDSIEFQVF | 4.3 µM | 1 of 3 |
| EGDSLRYYYFN | YKNNRPS | SSRDSSRFQVF | 4.8 µM | 1 of 3 |
| EGDALRYYYAN | AKNNRPS | SSRDSSVFQVF | 5.5 µM | 3 of 3 |
| EGDSPRYYYAN | GKNNAPS | SSRDSSCFQVF | 5.7 µM | 2 of 3 |
| EGDSLRYYYAN | GKNNKPS | HSRDSSCFQVF | 6.0 µM | 2 of 3 |
| EGDSLRYYRAN | GKNNRPD | SSRDSSMFQVF | 6.4 µM | 3 of 3 |
| EQDSLRYYYAN | GKNNRPS | SSRDSSSFAVF | 6.8 µM | 3 of 3 |
| EGDSLRYYYAN | TKNNRPS | SSRDSTLFQVF | 7.5 µM | 1 of 3 |
| EGDSLRYYYAN | GKTNRPS | SSRDSSQFQVF | 8.9 µM | 3 of 3 |
| EGDSLQYYYAN | GKNNRPS | DSRDSSVFQVF | 9.7 µM | 1 of 3 |
| EGDSLRYYYAD | GKNMRPS | SSRDSSAFQVF | 10 µM | 2 of 3 |
| EGDSLRYYYAN | GKNNQPS | SSRDSHLFQVF | 11 µM | 3 of 3 |
| EGDPLRYYYAN | GKNNRPS | SSRDTSCFQVF | 11 µM | 3 of 3 |
| EGDWLRYYYSN | GKNNRPS | SSRDSSDFQVF | 11 µM | 1 of 3 |
| EGDSLRYYYAN | GKNNPPS | SSRDSSPFQVF | 14 µM | 3 of 3 |
| EGDSLRYYYAN | GKNNRPS | SWFDSSTFQVF | 18 µM | 2 of 3 |
| EGDSLQYYYAN | GKNNRPS | SSRDSSSCQVF | 29 µM | 1 of 3 |
| EGDSLRYYYAN | GKNNRPF | SSRDSSWFQEF | 36 µM | 2 of 3 |
| EGDSLRYYYAN | GSNNRPS | SSRDSSWFQVN | 37 µM | 1 of 3 |
| EEDSLRYYYAN | GKNNRPS | SSRDSSSFQYF | 61 µM | 1 of 3 |
| EGDSLRYYYAN | GKNNRPS | TSRDSSPFQVF | 120 µM | 2 of 3 |
| EGDSLRYYYFN | AKNNRPS | SSRDSSFFQVF | 130 µM | 1 of 3 |
| EGDSLRYYYAN | GKNNRPL | SSWDSSQFQVF | 190 µM | 1 of 3 |
| EGDSLRYYYRN | GPNNRPS | SSRDSSHFQVF | 240 µM | 1 of 3 |
| EGDALRYYYAN | GKNNRPS | SSRDSSHFTVF | no signal | 0 of 3 |
| EGDSLYYYYAN | GPNNRPS | SSRDSSRFQVF | no signal | 0 of 3 |
| EGDSLRYIYAN | GKNNLPS | SSRDSSEFQVF | no signal | 0 of 3 |
| EGDSLRYYYAN | GKNNRPS | SSRDSWTFAVF | no signal | 0 of 3 |
| EGDSLRYYYAI | GKNNRKS | SSRDSSYFQVF | no signal | 0 of 3 |
| EGNSLRYYYAN | GKNNRPS | SSRDFSMFQVF | no signal | 0 of 3 |

Extract of 8 entries:

CDR-L1	CDR-L2	CDR-L3	Kd	seen in
EGWSLRYYYAN	GKNNRPS	SSSDSSCFQVF	2.2 µM	1 of 3
EGDSLRYYYAN	GKNNPPS	SSRDSSPFQVF	14 µM	3 of 3
EGDSLRYYYAN	GKNNRPS	SSRDSWTFAVF	no signal	0 of 3
EGDSLRYYYAN	GKNNRPL	SSWDSSQFQVF	190 µM	1 of 3
EGDSLQYYYAN	GKNNRPS	DSRDSSVFQVF	9.7 µM	1 of 3
EGDYLRYYYAN	GKNNRPS	SSRPSSPFQVF	440 nM	3 of 3
EGDSLRYYYFN	YKNNRPS	SSRDSSRFQVF	4.8 µM	1 of 3
EGDSLRYYYAI	GKNNRKS	SSRDSSYFQVF	no signal	0 of 3

Source: Engelhart et al. 2022 (doi:10.1038/s41597-022-01779-4), MIT Lincoln Laboratory and A-Alpha Bio; data file from the FLAb repository.